Assay results reported in PubChem BioAssay (NCI).
This is a selection; strong and weak results do not stand in their true shares.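 Results are percent growth after 48 hours of single-concentration exposure. 100 means growth as in untreated cells, lower positive values show inhibition; negative values down to -100 show cell death.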 Active and inactive are the calls of the source. How the source made its calls: active means growth percent below 10; inactive means the rest.

system: MDA-MB-468 breast; assay: NCI-60 one-dose screen, 48 h (100 = growth as untreated, 0 = no growth, -100 = all killed); settings: 10 µM unless noted

Row | Structure (SMILES) | growth
1 | ClCCNCc1cccc(Cl)c1 | inactive: 104%
2 | CCOC(=O)Nc1cccc([As](=O)(O)O)c1 | inactive: 95.1%
3 | Cc1ccc(NCCCl)c2c(=O)c3ccccc3sc12 | inactive: 98%
4 | O=C(O)c1ccccc1[As](=O)(O)O | inactive: 97.8%
5 | CCOC(=O)NC(C)(CCC(C)(NC(=O)OCC)P(=O)(O)Nc1ncccn1)P(=O)(O)Nc1ncccn1 (stereo not drawn) | inactive: 99.2% [100 µM]
6 | CCCNC(=O)c1ccc(N(CCCl)CCCl)cc1 | inactive: 110%
7 | COP(=O)(OC)N(CCCl)CCCl | inactive: 99.2%
8 | CC(C)(NCCCl)C(O)c1ccccc1 (stereo not drawn) | inactive: 84.2%
9 | O=C(O[C@H]1CN2CCC1CC2)C1NCc2ccccc2[C@@H]1c1ccccc1 (stereo partly drawn) | inactive: 93.1%
10 | O=C(O)CCc1ccc(N(CCCl)CCCl)cc1 | inactive: 94.5%
11 | CC(/C=N/N=C(\N)N[N+](=O)[O-])=N\N=C(/N)N[N+](=O)[O-] | inactive: 96.9%
12 | N/C(=N\N=C\c1ccc([N+](=O)[O-])o1)N[N+](=O)[O-] | inactive: 98.5%
13 | NP(=O)(N(CCCl)CCCl)N1CC1 (stereo not drawn) | inactive: 108%
14 | COc1cc([N+](=O)[O-])c(Nc2ccc(Cl)cc2[N+](=O)[O-])c([N+](=O)[O-])c1 | inactive: 40.4%
15 | Nc1ccccc1[As](=O)(O)c1ccccc1 | inactive: 103%
16 | Cn1c(COc2ccc([N+](=O)[O-])cc2[N+](=O)[O-])cnc1[N+](=O)[O-] | inactive: 107%
17 | CCCCOP(N)(=O)OCCCC | inactive: 99.5%
18 | O=P1(N(CCCl)CCCl)Nc2ccccc2N1 | inactive: 105%
